Source: US20190062322A1, “PUMA INHIBITOR, METHOD FOR PREPARATION THEREOF, AND USE THEREOF” (FOURTH MILITARY MEDICAL UNIVERSITY, priority 2016, published 2019)

Amino acid sequences for entries named in this document (tags omitted).
UniProt Q07820, whole entry: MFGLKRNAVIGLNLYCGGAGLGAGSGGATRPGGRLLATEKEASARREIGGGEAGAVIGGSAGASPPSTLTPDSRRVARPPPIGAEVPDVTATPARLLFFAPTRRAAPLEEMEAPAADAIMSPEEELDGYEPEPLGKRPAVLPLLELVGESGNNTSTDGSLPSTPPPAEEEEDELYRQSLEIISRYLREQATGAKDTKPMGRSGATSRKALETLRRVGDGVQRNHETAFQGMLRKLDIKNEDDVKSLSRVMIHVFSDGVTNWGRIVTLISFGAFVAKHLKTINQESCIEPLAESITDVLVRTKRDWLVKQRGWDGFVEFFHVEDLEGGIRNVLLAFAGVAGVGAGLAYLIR

Molecular target: Mcl-1 (Homo sapiens, UniProt Q07820)
Assay: FPA competition assay, inhibition of Mcl-1 / FITC-Mcl-BH3 binding
Conditions: 250 nM Mcl-1 and 250 nM FITC-Mcl-BH3 probe, pH 7.5, cells printed in nM
Description: Experiment 1 the Inhibition Assay of Compounds 1˜12 to Mcl-1
FPA competition assays were adopted to evaluate the binding affinity of compounds to Mcl-1. The FITC labelled BH3 peptide of Mcl-1 (FITC-Mcl-BH3, FITC-AHx-KALETLRRVGD GVQRNHITAF-NH2) was synthesized and used as fluorescence probe in the FPA competition assays. The binding of FITC-Mcl-BH3 and Mcl-1 can enhance the polarized light. While the binding of compounds and Mcl-1 would reduce the polarization, IC50 is the compound concentration that displaces 50% of the fluorescent ligand from the ligand-receptor complex.
All assays were performed in the assay buffer (pH 7.5) composed of 20 mM Tris, 50 mM NaCl, 3 mM DTT and 2% DMSO. The FPA competition assays were carried out in the 96-well, black, flat-bottom plates (Nunc). To check the interference effects of candidate compounds on the interaction between Mcl-1 and FITC-Mcl-BH3, solutions containing 250 nM Mcl-1 and 250 nM fluorescence probes were titrated with […] selected compounds (0-128 μM, 2-times gradient) dissolved in the assay buffer. The emission fluorescence changes were recorded from 480 to 540 nm by TECAN Infinite M1000 Microplate Spectrophotometer with excitation wavelength being 450 nm. The IC50 were calculated.

O=C1N=C(N2CCN(CCO)CC2)S/C1=C\c1ccccc1
IC50: 295 nM

Cc1ccc(/C=C2\SC(N3CCC(CCO)CC3)=NC2=O)cc1
IC50: 4.77 nM

O=C1N=C(N2CCC(CCO)CC2)S/C1=C\c1ccc(-c2ccccc2)cc1
IC50: 5.68 nM
